This assay relates to M. tuberculosis H37Rv. The assay is described as follows: Anti-tuberculosis bioassay (tetrazolium microplate MIC). The following applies: Mycobacterium tuberculosis, read-out: Mycobacterium MIC H37Rv. The class given is cell-based.

In general, MIC refers to the lowest concentration found to suppress growth. For `COc1cc(/C=N\Nc2ncnc3sc4c(c23)CCCC4)ccc1O` [II-15], the MIC was greater than 25 µg/mL.

(Values after patent publication US9061984B2 (University of Louisville Research Foundation, Inc., priority 2008, dated 2015).)
